Reference: patent US7018989B2, “Chemical compounds” (University College Cardiff Consultants, LTD, priority 1995, dated 2006)

Test system: CEM cells
Assay: Toxicity to CEM cells
Format: cell-based, human
Conditions: Table 6; mean of two or more repeat experiments
Protocol: Cells were infected with HIV-1 as previously described [Balzarini et al. AIDS (1991), 5, 21–28]. Briefly, 5×10^5 cells per milliliter were infected with HIV-1 or HIV-2 at 100 CCID50 (50% cell culture infective dose) per milliliter of cell suspension. Then 100 μL of the infected cell suspension was transferred to microtiter plate wells and mixed with 100 μL of the appropriate dilutions of the test compounds. After 4 days giant cell formation was recorded microscopically in the HIV-infected cell cultures [CEM], and after 5 days the number of viable cells was determined by trypan blue staining of the HIV-infected cell cultures [MT4].
The data columns are, in order: • HIV1 MT4: EC50 in μM for inhibition of HIV-1 in MT4 cells. • HIV2 MT4: EC50 in μM for inhibition of HIV-2 in MT4 cells. • CC50 MT4: CC50 in μM for toxicity to MT-4 cells. • HIV1 CEM: EC50 in μM for inhibition of HIV-1 in CEM cells. • HIV2 CEM: EC50 in μM for inhibition of HIV-2 in CEM cells. • HIV2 CEM-TK-: EC50 in μM for inhibition of HIV-2 in CEM/TK^− cells. • CC50 CEM: CC50 in μM for toxicity to CEM cells. • EC50 MSV: EC50 in μM for inhibition of MSV • MCC MSV: Minimum cytotoxic concentration in MSV assay

Structure (SMILES): Cc1cn(C2C=CC(COP(=O)(NC(C)C(=O)OCc3ccccc3)Oc3ccccc3)O2)c(=O)[nH]c1=O (stereo not shown) [Compound 730, 2′,3′-dideoxy-2′,3′-didehydrothymidine-5′-(phenyl N-benzyloxyalaninyl) phosphoramidate]
- CC50: 25 µM
